In ChEMBL document CHEMBL3576850 (J Nat Prod, 2015):

Assays:
[1] = Selectivity ratio for recombinant his-tagged methicillin-resistant Staphylococcus aureus pyruvate kinase over recombinant his-tagged human pyruvate kinase M2
[2] = Selectivity ratio for recombinant his-tagged methicillin-resistant Staphylococcus aureus pyruvate kinase over recombinant his-tagged human pyruvate kinase L
[3] = Selectivity ratio for recombinant his-tagged methicillin-resistant Staphylococcus aureus pyruvate kinase over recombinant his-tagged human pyruvate kinase R
[4] = Selectivity ratio for recombinant his-tagged methicillin-resistant Staphylococcus aureus pyruvate kinase over recombinant his-tagged human pyruvate kinase M1

Measured: Selectivity ratio

O=C1NC[C@@H](c2c[nH]c3cc(Br)ccc23)N[C@H]1c1c[nH]c2cc(Br)ccc12 (relative stereo) [CIS-3,4-DIHYDROHAMACANTHIN B]
166: all assays above
